For one compound, Tmax and bioavailability results are on record in patent US9526785B2, “Pharmaceuticals for oral delivery” (Enteris BioPharma, Inc., priority 2013, dated 2016).

Data set [1] in a line: Tigecycline plasma PK and % F after PO enteric-coated capsule in dogs. The following applies: PO 15 mg enteric-coated capsule with 500 mg CA and 100 mg LLC (1.25 mg/kg), SC424; individual dogs. The data set is classed as in vivo, Beagle dogs. The protocol: Adult beagle dogs weighing approximately 9 to 15 kg were used in the study. […] Room temperature was set to be maintained between approximately 20±5° C. Relative humidity was monitored but not controlled.
TEKLAD™ Certified Canine Diet was provided once daily in amounts (˜400 grams) appropriate for the size and age of the animals. Tap water was available ad libitum via automatic watering device or water bowls.
Doses are expressed in terms of free net tigecycline content. Intravenous doses of tigecycline were administered as bolus injections at a dose of 1.0 mg/mL. […]
The quantitative determination of tigecycline in dog plasma was performed using an HPLC assay using UV detection at 350 nm. […]
The HPLC system consisted of Shimadzu SIL-HTc HPLC system equipped with dual Shimadzu LC-10ADvp isopumps, a Shimadzu CTO-10ASvp column temperature controller and a Shimadzu SPD-10Avp variable wavelength detector. The chromatographic separation was based on Li et al. with some notable differences (See Li et al., 2004, Quantitation of tigecycline, a novel glycylcycline, by liquid chromatography. J. Chromatography B. 811:225-229). […]
The unknown concentration in dog plasma samples was determined by interpolation of the peak area ratios of analyte:internal standard versus the ratio of their nominal concentrations into the regression line obtained from calibration standards spiked in pooled dog plasma. […]

Data set [2] is described as follows: Tigecycline plasma PK and % F after intraduodenal (ID) injection in anesthetized rats. The following applies: female, Sprague-Dawley, rat, other: intraduodenal injection, 4.8 mg/kg, pH 3.5, ID, 400 mM CA (pH 3.5), 26 mM LLC, 4.8 mg/kg (RA851), parent Tigecycline peak only, relative to 0.64 mg/kg IV. The format is in vivo. The protocol:
Naïve, female Sprague-Dawley Rats (Taconic Farms, Germantown, N.Y.) housed in groups of three were maintained in a climate-controlled room on a 12:12 h light-dark cycle with food and water available ad libitum. Animals weighed approximately 250 g at the time of testing. Rats were fasted overnight (with water available), prior to dosing. Tigecycline stock was prepared fresh on the day of each study in water and diluted in the indicated formulations.
Intravenous (IV) doses were administered as a bolus injection into the left carotid […] at a dose volume of 1.6 mL/kg. Intraduodenal doses were administered as bolus injections into the duodenum at a dose volume of 1.2 mL/kg. […]
Female rats were maintained in groups of 3 per polycarbonate (or equivalent) shoebox cage with fresh wood chip bedding at 20-22° C. under a 12 hour on/off light:dark cycle. […] Animal weights were determined post-anesthesia induction. […]
An intraduodenal injection was utilized to mimic oral delivery of an enterically coated capsule or tablet formulation. […] The measured site was identified by inserting a small piece of surgical suture underneath the site for injection. […] Blood samples (˜0.5 mL) were collected from a surgically implanted cannula in the right carotid artery for plasma tigecycline concentration analysis prior to dosing and at pre-determined time points post-dose up to either 120 or 240 minutes depending on the study. […]

In the case of `CN(C)c1cc(NC(=O)CNC(C)(C)C)c(O)c2c1C[C@H]1C[C@H]3[C@H](N(C)C)C(O)=C(C(N)=O)C(=O)[C@@]3(O)C(O)=C1C2=O` [Tigecycline], the Tmax (usually the time from dosing to the highest level) in data set [1] stood at 1.75 h. For the same compound, in data set [2], the bioavailability (in general, dose-corrected exposure relative to a reference, in per cent) amounted to 20.3%.
